Measured values published in ChEMBL document CHEMBL2057089, “Design and synthesis of novel p38α MAP kinase inhibitors: discovery of pyrazole-benzyl ureas bearing 2-molpholinopyrimidine moiety” (Bioorg Med Chem Lett, 2012).

Test system: Mus musculus
Experiment: Antiinflammatory activity in po dosed BALB/c mouse model of endotoxic shock assessed as inhibition of LPS-induced TNFalpha production administered 30 mins before LPS challenge measured after 60 mins by ELISA
Assay type: functional

Cc1ccc(-n2nc(C(C)(C)C)cc2NC(=O)NCc2cc(F)ccc2Oc2ccnc(N3CCOCC3)n2)cc1
inhibition: Dose-dependent effect
